The target of assay [1] is Sodium-dependent dopamine transporter (Rattus norvegicus, UniProt P23977). The assay is described as follows: Displacement of [3H]WIN-35428 from DAT in Sprague-Dawley rat brain. The class given is tissue-based. An outline of the steps:
(§1)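 Male Sprague-Dawley rats (200-250 g); striata, midbrain or frontal cortex tissue used for competition binding. Final radioligand concentrations were 0.5 nM for DAT, 0.2 nM [³H]paroxetine for SERT and 0.5 nM [³H]nisoxetine for NET.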

Sequences of proteins named here, by UniProt entry; tags and fusion partners are left off.
UniProt P23977, whole entry: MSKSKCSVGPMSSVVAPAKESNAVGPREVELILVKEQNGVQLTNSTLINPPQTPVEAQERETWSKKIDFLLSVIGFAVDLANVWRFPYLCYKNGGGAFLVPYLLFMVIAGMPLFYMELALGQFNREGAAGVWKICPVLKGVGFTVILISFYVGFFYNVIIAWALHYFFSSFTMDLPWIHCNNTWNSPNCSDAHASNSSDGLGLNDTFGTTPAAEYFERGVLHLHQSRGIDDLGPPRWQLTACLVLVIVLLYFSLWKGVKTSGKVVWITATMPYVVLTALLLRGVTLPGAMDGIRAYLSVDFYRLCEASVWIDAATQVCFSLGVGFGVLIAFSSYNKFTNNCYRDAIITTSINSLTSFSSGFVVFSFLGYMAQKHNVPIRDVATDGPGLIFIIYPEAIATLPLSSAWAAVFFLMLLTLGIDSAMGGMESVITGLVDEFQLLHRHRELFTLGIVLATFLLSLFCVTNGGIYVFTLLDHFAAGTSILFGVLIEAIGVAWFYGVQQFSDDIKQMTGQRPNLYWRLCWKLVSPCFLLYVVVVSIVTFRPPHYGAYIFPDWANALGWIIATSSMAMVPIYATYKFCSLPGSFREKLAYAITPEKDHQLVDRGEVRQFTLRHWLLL
UniProt Q01959, whole entry: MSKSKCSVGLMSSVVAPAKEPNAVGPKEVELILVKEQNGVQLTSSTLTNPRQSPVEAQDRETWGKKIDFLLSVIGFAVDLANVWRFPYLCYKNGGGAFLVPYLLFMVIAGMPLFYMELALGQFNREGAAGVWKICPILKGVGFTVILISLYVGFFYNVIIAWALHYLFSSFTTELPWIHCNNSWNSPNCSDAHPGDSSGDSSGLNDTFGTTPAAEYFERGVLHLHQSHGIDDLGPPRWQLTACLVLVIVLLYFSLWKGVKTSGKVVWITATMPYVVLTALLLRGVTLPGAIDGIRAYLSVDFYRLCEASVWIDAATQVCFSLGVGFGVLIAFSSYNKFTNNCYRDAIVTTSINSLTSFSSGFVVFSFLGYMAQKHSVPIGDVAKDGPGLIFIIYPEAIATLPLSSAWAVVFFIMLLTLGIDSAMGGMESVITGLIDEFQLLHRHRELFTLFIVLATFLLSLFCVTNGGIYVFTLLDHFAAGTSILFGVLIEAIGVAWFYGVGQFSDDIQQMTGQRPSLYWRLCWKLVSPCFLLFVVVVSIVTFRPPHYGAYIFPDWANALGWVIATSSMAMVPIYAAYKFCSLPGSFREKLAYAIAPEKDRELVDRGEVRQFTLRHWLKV
UniProt P31652, whole entry: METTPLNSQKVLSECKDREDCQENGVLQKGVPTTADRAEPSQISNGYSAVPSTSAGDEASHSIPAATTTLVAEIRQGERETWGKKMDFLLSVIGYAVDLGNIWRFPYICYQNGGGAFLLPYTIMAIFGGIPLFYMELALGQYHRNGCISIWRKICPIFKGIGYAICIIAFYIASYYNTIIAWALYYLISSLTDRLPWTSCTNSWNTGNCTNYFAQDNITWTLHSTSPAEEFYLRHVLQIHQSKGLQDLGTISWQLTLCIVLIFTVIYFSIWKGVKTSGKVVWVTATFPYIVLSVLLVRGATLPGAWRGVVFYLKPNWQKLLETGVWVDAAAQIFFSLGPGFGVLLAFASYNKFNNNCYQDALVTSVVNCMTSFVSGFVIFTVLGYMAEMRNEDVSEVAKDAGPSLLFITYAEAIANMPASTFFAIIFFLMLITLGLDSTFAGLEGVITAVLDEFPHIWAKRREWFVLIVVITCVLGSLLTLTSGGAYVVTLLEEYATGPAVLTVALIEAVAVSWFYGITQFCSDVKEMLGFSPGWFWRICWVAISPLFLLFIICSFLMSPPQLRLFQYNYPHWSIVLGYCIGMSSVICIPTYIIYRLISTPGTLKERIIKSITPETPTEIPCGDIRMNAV

Assay [2] addresses Sodium-dependent dopamine transporter (Homo sapiens, UniProt Q01959). The assay is described as follows: Displacement of [125I]RTI-55 from human DAT expressed in HEK cells after 90 mins. The assay is classed as cell-based, HEK293. In short, it runs like this: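 Competition binding on human DAT or SERT stably expressed in HEK293 cells, using the nonselective radioligand [¹²⁵I]RTI-55.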
In general terms: In a radioligand displacement assay an active substance lowers the binding of a labelled ligand.

For assay [3], the target named is Sodium-dependent serotonin transporter (Rattus norvegicus, UniProt P31652). The assay is described as follows: Displacement of [3H]paroxetine from SERT in Sprague-Dawley rat brain. The assay is classed as tissue-based. An outline of the steps:
as §1

Molecules are shown by their SMILES.

The values that follow come from ChEMBL document CHEMBL1146223, “Synthesis, monoamine transporter binding, properties, and functional monoamine uptake activity of 3beta-[4-methylphenyl and 4-chlorophenyl]-2 beta-[5-(substituted phenyl)thiazol-2-yl]tropanes” (J Med Chem, 2007).

Usually IC50 stands for the concentration that inhibits the measured activity by half. A high value points to lower potency. As a reminder, the Ki is a measure of affinity in units of concentration, obtained from inhibition or displacement. Higher therefore signals lower affinity. For the compound `CN1[C@H]2CC[C@@H]1[C@@H](c1ncc(-c3ccc(Br)cc3)s1)[C@@H](c1ccc(Cl)cc1)C2`, the IC50 in assay [1] turned out to be 107 nM. In assay [2], affinity was put at a Ki of 35 nM.
Compound `COC(=O)[C@H]1[C@@H](c2ccccc2)C[C@@H]2CC[C@H]1N2C` [TROPARIL] had a Ki in assay [3] of 1900 nM.
